Experimental data: ChEMBL document CHEMBL3232723, “Design, synthesis and biological evaluation of novel tetrahydroacridine pyridine- aldoxime and -amidoxime hybrids as efficient uncharged reactivators of nerve agent-inhibited human acetylcholinesterase” (2014)

The compounds below were run against Acetylcholinesterase (Homo sapiens, UniProt P22303) (assay: Reactivation of methylphosphonothioate VX-inhibited recombinant human AChE measured up to 10 mins by Ellman's method).

SMILES | Kd [µM]
NC(=O)c1cc[n+](CCC[n+]2ccccc2/C=N/O)cc1 | 50
CN(CCNc1c2c(nc3ccccc13)CCCC2)Cc1ccnc(/C(N)=N/O)c1O | 15
CN(CCCNc1c2c(nc3ccccc13)CCCC2)Cc1ccnc(/C(N)=N/O)c1O | 30
